{
  "sequences": {"note": "Sequences of proteins named here, by UniProt entry; tags and fusion partners are left off. Residues count along the entry.", "UniProt A0A8I3MKE6, 1-646": "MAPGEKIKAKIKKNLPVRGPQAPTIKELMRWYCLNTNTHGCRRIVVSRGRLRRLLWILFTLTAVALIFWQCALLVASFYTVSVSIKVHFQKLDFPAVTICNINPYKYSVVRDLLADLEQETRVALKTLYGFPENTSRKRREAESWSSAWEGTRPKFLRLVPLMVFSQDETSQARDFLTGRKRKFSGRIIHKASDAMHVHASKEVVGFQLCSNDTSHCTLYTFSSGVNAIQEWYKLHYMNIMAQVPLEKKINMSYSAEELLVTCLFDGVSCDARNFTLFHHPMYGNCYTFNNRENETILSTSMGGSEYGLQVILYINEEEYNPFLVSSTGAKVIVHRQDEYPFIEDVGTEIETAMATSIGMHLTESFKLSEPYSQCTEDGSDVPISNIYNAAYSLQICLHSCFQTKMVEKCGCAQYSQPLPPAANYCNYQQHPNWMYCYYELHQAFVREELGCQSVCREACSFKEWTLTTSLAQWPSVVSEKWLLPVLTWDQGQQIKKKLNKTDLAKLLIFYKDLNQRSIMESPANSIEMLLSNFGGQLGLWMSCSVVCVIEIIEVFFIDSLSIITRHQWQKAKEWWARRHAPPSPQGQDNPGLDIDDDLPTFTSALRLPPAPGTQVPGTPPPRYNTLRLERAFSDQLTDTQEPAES", "UniProt A0A8I3Q679, 1-649": "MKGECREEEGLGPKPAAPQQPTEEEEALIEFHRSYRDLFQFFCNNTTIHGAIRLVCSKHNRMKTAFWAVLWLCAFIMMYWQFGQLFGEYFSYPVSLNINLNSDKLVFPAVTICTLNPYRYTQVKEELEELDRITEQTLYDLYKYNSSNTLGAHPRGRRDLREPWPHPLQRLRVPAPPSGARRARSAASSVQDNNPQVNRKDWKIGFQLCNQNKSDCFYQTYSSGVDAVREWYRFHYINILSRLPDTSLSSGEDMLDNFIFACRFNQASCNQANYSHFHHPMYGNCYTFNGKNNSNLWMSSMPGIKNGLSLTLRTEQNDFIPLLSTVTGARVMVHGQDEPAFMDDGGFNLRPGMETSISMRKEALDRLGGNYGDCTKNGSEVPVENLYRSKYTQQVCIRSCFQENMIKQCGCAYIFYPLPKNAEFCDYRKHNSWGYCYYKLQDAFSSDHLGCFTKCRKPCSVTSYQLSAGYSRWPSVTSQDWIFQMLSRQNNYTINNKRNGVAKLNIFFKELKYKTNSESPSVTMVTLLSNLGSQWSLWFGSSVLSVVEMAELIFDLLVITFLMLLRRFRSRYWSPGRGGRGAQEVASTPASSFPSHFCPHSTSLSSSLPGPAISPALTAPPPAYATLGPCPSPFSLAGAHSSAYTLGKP", "UniProt Q95165, whole entry": "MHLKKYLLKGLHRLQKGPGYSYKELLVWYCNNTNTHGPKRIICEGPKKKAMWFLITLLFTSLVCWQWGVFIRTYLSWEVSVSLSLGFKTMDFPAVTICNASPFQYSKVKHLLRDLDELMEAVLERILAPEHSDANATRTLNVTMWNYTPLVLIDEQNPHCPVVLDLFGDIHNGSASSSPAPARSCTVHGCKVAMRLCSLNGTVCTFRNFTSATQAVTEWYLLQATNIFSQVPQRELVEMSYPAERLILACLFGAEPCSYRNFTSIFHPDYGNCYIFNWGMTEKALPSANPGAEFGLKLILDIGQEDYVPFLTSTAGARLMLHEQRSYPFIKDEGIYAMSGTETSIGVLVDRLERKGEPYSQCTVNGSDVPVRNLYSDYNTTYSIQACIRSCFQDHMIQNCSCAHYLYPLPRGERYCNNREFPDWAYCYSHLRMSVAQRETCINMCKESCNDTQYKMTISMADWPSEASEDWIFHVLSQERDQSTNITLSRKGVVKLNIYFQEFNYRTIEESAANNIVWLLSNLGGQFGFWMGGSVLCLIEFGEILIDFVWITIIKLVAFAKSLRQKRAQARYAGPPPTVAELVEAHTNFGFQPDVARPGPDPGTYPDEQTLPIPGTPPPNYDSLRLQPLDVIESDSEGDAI"},
  "source": "patent US8575176B2",
  "about": "“Heteroaromatic pyrazinoylguanidine sodium channel blockers” (Parion Sciences, Inc., priority 2008, dated 2013)",
  "target": "epithelial sodium channels (ENaC) (Canis lupus familiaris, UniProt A0A8I3MKE6+A0A8I3Q679+Q95165)",
  "assay": "In vitro sodium channel blocking activity (short circuit current, Ussing chambers), dog airway cells",
  "assay_type": "cell-based",
  "details": "freshly excised cell from dog airways; tested form: 2 CH3SO3H",
  "data": [
    {"smiles": "N=C(N)NCCCOc1ccc2cc(CCCCNC(=N)NC(=O)c3nc(Cl)c(N)nc3N)ccc2c1", "values": [
      {"measurement": "IC50", "value": 9.6, "unit": "nM"}
    ]}
  ]
}
